Literature values as cited in article PMC3631442.

The chains behind the UniProt entries cited, without tags or fusion partners. Where a name states a change or a piece, a line headed by the entry shows the natural chain unless it says otherwise. Residues count along the entry.
UniProt O43521, 141-166: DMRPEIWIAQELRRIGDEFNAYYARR
UniProt Q16548: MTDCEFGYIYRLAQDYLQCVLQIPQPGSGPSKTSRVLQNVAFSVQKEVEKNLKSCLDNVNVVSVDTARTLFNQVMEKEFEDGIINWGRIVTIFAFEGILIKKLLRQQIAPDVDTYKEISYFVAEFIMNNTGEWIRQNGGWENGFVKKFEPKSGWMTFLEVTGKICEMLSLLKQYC

Molecular target: Bim BH3 BH3 (Homo sapiens) (UniProt O43521)
Conditions: cited from earlier work

## Bfl-1 (from UniProt Q16548)
  Kd: 50 nM
